scFv variants of Ab-14 (light chain) against a SARS-CoV-2 spike peptide

Target peptide (SARS-CoV-2 spike, HR2 region): PDVDLGDISGINAS

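Phage display of a naive human antibody library on the peptide gave the parent. Designed CDR sequences, proposed from the first random library and measured here. Their group label is 14L_En_HC (En: ensemble of fine-tuned language models; HC: hill climbing; a sequence that several methods proposed may carry one label only). Affinity was read by AlphaSeq, a pooled yeast mating assay with surface-displayed partners. After mating in shaken culture at 30 °C for 16 h, diploids were selected and their barcode pairs sequenced. Scores were corrected for input abundance and mapped to Kd with protein pairs of known affinity run in the same pool. Mating was done six times.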

Each scFv is VH, a 15-residue (Gly4Ser)3 linker, VL, as in the parent Ab-14, and differs from it in the CDRs of the light chain only.
VH: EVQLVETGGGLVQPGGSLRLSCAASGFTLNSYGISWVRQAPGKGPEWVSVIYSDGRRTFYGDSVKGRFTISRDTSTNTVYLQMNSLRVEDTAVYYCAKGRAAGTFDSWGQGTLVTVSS
VL: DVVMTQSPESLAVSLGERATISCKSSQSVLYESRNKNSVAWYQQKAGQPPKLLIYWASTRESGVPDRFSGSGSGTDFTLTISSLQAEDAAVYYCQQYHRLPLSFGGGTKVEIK

The parent's light chain CDRs are KSSQSVLYESRNKNSVA, WASTRES, QQYHRLPLS; each variant's own CDRs replace them letter for letter. Values are log10 of the apparent Kd in nM; lower means stronger binding. A mean of the replicates is given; it leaves out those without a signal. A pair that was not seen in that replicate is written "nd"; this usually means weak binding, but a binder can also be missed. A sequence measured in both rounds can read differently, since the two assays cover different ranges. The authors averaged sequences with at least three values out of six and counted those with two or fewer as poor binders. Background: pairings of all light chain designs with three empty control strains gave a value in 4% of cases (median 2.64, 5th percentile 1.59). Values in that range, when seen in few replicates, are hard to tell from nonspecific mating. Also given: how often the same scFv was detected with the empty control strains, with their mean in brackets. Of ten entries with the parent sequence, four were seen in most replicates (averages 0.34 to 2.37), three in one and three in none, so single entries are noisy.

CDR-L1 | CDR-L2 | CDR-L3 | log10 Kd (nM) by replicate | log10 Kd (nM), mean | control signals
KISQSILFMSGLKNAIA | QMEMREE | QQYHRLPLS | 1.52 0.95 1.33 1.82 2.98 1.54 | 1.69 | 1 of 18 (2.72)
KLSATYRWESQNKNSIA | EMTTRES | QCYHRLPLS | nd 2.52 2.22 0.67 1.59 2.99 | 2.00 | 1 of 18 (2.12)
KISQTFNVGTKNTNSLA | EMNTRGG | QDYHRLPLS | 0.36 0.59 0.63 0.53 0.77 0.77 | 0.61 | 1 of 18 (3.18)
HLSESVLAQSKMKNSVA | ENSTRES | QQYDRLPLS | nd 1.59 1.52 3.84 3.25 nd | 2.55 | 2 of 18 (2.31)
MMLQATMYGERQRNSVA | HAQTRED | QQYHRLPLI | 0.86 0.89 0.80 0.85 1.04 1.72 | 1.03 | 0 of 18
HISQMVMYGSCNKYNVA | QVSLREE | QQYHRLPLS | 0.14 0.28 0.27 -0.08 0.34 0.68 | 0.27 | 0 of 18
MITAGLRGVGRNKNSVA | NAQTRES | QHYNRLPLS | nd 2.66 2.05 1.58 2.08 nd | 2.09 | 1 of 18 (2.49)
KLSQVTEYESHNKNNVA | DLTTRGS | QDYHRLPLS | 0.16 0.04 -0.05 -0.22 0.28 -0.05 | 0.03 | 0 of 18
MFSSLMEYGSRYKNSVA | QASVREN | QQYHWLPLS | 0.55 0.77 0.51 0.45 0.40 0.48 | 0.53 | 1 of 18 (4.10)
KISFNYLIESKNLNSVA | EMTTREY | QDYDRLPLS | 1.55 nd 1.56 nd nd nd | 1.55 | 0 of 18
SLMQVGGYESNNKRSIA | DLRTRES | QQYHRLPLS | 0.89 0.84 0.90 0.73 0.86 1.08 | 0.88 | 2 of 18 (3.32)
IISQVDAYESRNKNSIA | DQSNRGS | QQYDRLPLS | 0.83 1.17 0.83 1.30 1.32 1.03 | 1.08 | 1 of 18 (2.99)
HISQMWFLESRNKNNVA | EESTRED | QSYFRLPLS | 0.31 0.41 0.15 0.80 0.49 0.33 | 0.42 | 1 of 18 (2.45)
MIAQGLRGVGRNKNSVA | NAQTRYS | QHYHRLPLS | nd nd nd nd nd nd | nd | 1 of 18 (1.92)
KLSQTVLFWGHAINSVA | EMETREN | QQYDRLPLS | 2.17 1.32 1.56 1.11 1.23 1.56 | 1.49 | 1 of 18 (2.36)
ILSQMMLTAGNKHSSVA | QANNRYD | QQYHRLPLS | nd nd nd nd nd nd | nd | 0 of 18
MFSQSVMYGSFMRNSVA | QTTTREN | QQYDRLPLM | nd nd nd nd nd nd | nd | 0 of 18
KISQSVNVGSKNKNSLA | EMSTREF | QDYHRLPLS | nd 2.80 2.06 1.73 1.78 2.05 | 2.08 | 0 of 18
ALSQSMDMTSRNKNSVA | DLSTRVN | QQYHRLPLS | 0.17 0.21 0.17 -0.05 0.11 0.25 | 0.14 | 2 of 18 (2.16)
HISQSVGMTSFNKNSVA | ENSTREE | QQYDRLPLS | 1.82 1.48 2.89 2.92 2.29 2.99 | 2.40 | 2 of 18 (2.15)
MLSDLVKMGSRNANSVA | DNSTRGS | QQYDRLPLS | 2.06 3.33 nd 2.27 1.50 1.90 | 2.21 | 2 of 18 (2.73)
HISYSMQHLSKNKNSVA | NQQTRES | QQYHRLPLS | 0.75 0.87 0.70 0.89 1.17 0.72 | 0.85 | 0 of 18
NFPQETMYESHFKNNVA | QTSTREP | QQYDHLPLS | 0.48 0.17 0.63 0.21 0.63 0.28 | 0.40 | 0 of 18
KLSQTVNFFGHAINSVA | EMETREN | QQYDRLPLS | 0.38 0.44 0.39 0.97 1.15 0.72 | 0.67 | 0 of 18
KLSESAHFESRKKNSVA | ENSTREE | QQYYHLPLS | 1.72 1.72 1.54 1.62 1.26 1.61 | 1.58 | 1 of 18 (2.83)
MLSDLVKMGSRNTGSVA | DNSTRGS | QQYDRLPLS | 1.07 0.61 1.20 0.89 1.08 1.14 | 1.00 | 2 of 18 (1.97)
KLYQMMGYLSRNKNSIA | DMSRRES | QQYHRLPLS | 0.61 0.55 0.48 0.37 0.40 0.62 | 0.50 | 2 of 18 (2.70)
KIGLVTNGISFSKNSVA | EQSTREE | QQYDRLPLS | 1.80 1.50 1.72 2.63 1.38 1.93 | 1.83 | 0 of 18
HISYSMAHLSKNGNSVA | NQQTRES | QQYHRLPLS | 1.00 0.41 0.41 0.29 0.07 0.63 | 0.47 | 1 of 18 (1.85)
MFSQLFMYGSRNYNSVA | QASTRVS | QQYHRLPLI | 1.03 2.82 1.85 1.71 2.28 1.77 | 1.91 | 1 of 18 (1.78)
KLREVQHVESKKKNNVA | DNSTRES | QDYYRLPLS | nd nd nd nd nd nd | nd | 0 of 18
KLSMYYRYESQEKNSIA | EMSTREE | QSYHRLPLS | 1.35 1.32 2.22 1.12 1.45 1.62 | 1.51 | 1 of 18 (2.84)
KISFQYRYEQLSKNNIA | EVQTRLK | QQYHRLPLS | 1.26 2.12 0.88 1.03 0.93 0.82 | 1.17 | 1 of 18 (4.00)
NVGQTMDGESRNKNSVA | HQSTRED | QHYHRLPLS | 1.05 0.74 0.71 0.83 0.72 1.09 | 0.86 | 1 of 18 (2.76)
KISQMVTYESTWHGAIA | QTSEREE | QQYHRLPFS | 0.18 -0.84 nd -0.55 -0.42 nd | -0.41 | 0 of 18
MISDLTMYGSHNVNSVA | DLSTRGS | QQYHRLPLS | 0.56 0.45 0.27 0.53 0.74 0.60 | 0.53 | 1 of 18 (2.69)
TLTQVNGMESHNKDNVA | DLSTRGS | QQYHRLPLS | 0.16 0.09 -0.09 -0.09 -0.01 0.03 | 0.01 | 2 of 18 (2.58)
QLLMATMQGTYNRNSVA | HAETRED | QSYHRLPLA | nd nd 1.47 nd 2.53 nd | 2.00 | 0 of 18
KLAATSLYESGAANSVA | QNSTRES | QQYHRLPLS | nd nd nd 2.48 4.14 2.23 | 2.95 | 1 of 18 (3.04)
MMSMGYLGGMRAKNNVA | QESTREE | QQYHRLPLI | 1.01 0.55 0.60 1.16 0.70 0.57 | 0.77 | 0 of 18
TISQSAHQESHNKNSVA | DLNVRGS | QQYDRLPLS | 0.42 0.64 0.06 0.14 0.53 0.92 | 0.45 | 0 of 18
KLSMVTNSEHKVKNSIA | EMVTREK | QQYDRLPLE | 0.78 0.42 0.84 1.10 0.90 1.16 | 0.87 | 2 of 18 (2.55)
KISMSYRYESENKNSIA | ELVTRMS | QQYHRLPLS | 0.71 1.73 0.77 0.94 0.79 1.05 | 1.00 | 0 of 18
TLTQSALMESHNKNSVA | DLSTRGS | QQYHRLPLS | 0.35 0.18 -0.22 -0.01 0.08 -0.05 | 0.06 | 0 of 18

From the list, the first 3 with no signal in any replicate:

{"CDR-L1": "MIAQGLRGVGRNKNSVA", "CDR-L2": "NAQTRYS", "CDR-L3": "QHYHRLPLS", "log10 Kd (nM) by replicate": "nd nd nd nd nd nd", "log10 Kd (nM), mean": "nd", "control signals": "1 of 18 (1.92)"}
{"CDR-L1": "ILSQMMLTAGNKHSSVA", "CDR-L2": "QANNRYD", "CDR-L3": "QQYHRLPLS", "log10 Kd (nM) by replicate": "nd nd nd nd nd nd", "log10 Kd (nM), mean": "nd", "control signals": "0 of 18"}
{"CDR-L1": "MFSQSVMYGSFMRNSVA", "CDR-L2": "QTTTREN", "CDR-L3": "QQYDRLPLM", "log10 Kd (nM) by replicate": "nd nd nd nd nd nd", "log10 Kd (nM), mean": "nd", "control signals": "0 of 18"}

Reference: Li et al. 2023, doi:10.1038/s41467-023-39022-2. File: FLAb, binding data.